# Legend:
# Chains of the proteins cited; added tags and fusions are not shown.
# UniProt Q07817, whole entry: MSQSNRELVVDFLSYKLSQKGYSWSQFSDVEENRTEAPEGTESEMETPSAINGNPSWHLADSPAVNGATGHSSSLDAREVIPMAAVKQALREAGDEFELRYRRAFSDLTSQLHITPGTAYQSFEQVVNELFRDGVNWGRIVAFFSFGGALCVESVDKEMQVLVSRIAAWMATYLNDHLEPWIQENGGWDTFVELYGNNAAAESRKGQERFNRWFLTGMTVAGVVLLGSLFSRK
# Bax = Bax conformational change (Bax 6A7 immunoprecipitation) in A549 cells; conditions: A549, serum-starved, 1 h; tested form: diammonium salt (as drawn, CO2NH4)
# Protocol: FIG. 4 is a series of images illustrating BH3-M6 inhibits the interaction between Bcl-XL, Bcl-2, and Mcl-1 with Bim, Bak or Bax in intact cells. (A) Co-immunoprecipitation from HEK293T cells. HEK293T cells were co-transfected with HA-Bcl-XL and Flag-BimEL for 18 h. Cells were exposed to 0, 25, 50, and 100 μM of BH3-M6 or 100 μM of TPC for 2 h at 37° C., lysed and subjected to immunoprecipitation with anti-FLAG-M2 beads. The resulting immune complexes, as well as total lysates, were analyzed by Western blotting with the indicated antibodies. (B) Co-immunoprecipitation from MDA-MB-468 cells expressing Bcl-XL-IRES-BimEL, Bcl-2-IRES-BimEL, and Mcl-1-IRES-BimEL. […] The resulting immune complexes were analyzed by Western blotting with Bim, Bcl-XL, Bcl-2, and Mcl-1 antibodies. […] The resulting immune complexes were analyzed by Western blotting with the indicated antibodies. […] The resulting immune complexes were analyzed by Western blotting with the antibodies indicated on the right. […]
# Next the inventors determined whether BH3-M6 could disrupt these interactions of the corresponding endogenous proteins. […] Finally, a mechanism by which freed Bax is believed to induce apoptosis is through a conformational change, which can be detected by a specific antibody. […]
# Flag-Bim with HA-Bcl-XL = Flag-Bim with HA-Bcl-XL (Homo sapiens, UniProt Q07817); assay: Co-immunoprecipitation from HEK293T cells; conditions: 0-100 μM BH3-M6 or 100 μM TPC, 2 h, tested form: diammonium salt (as drawn, CO2NH4)
# Protocol: FIG. 4 is a series of images illustrating BH3-M6 inhibits the interaction between Bcl-XL, Bcl-2, and Mcl-1 with Bim, Bak or Bax in intact cells. (A) Co-immunoprecipitation from HEK293T cells. HEK293T cells were co-transfected with HA-Bcl-XL and Flag-BimEL for 18 h. Cells were exposed to 0, 25, 50, and 100 μM of BH3-M6 or 100 μM of TPC for 2 h at 37° C., lysed and subjected to immunoprecipitation with anti-FLAG-M2 beads. The resulting immune complexes, as well as total lysates, were analyzed by Western blotting with the indicated antibodies. (B) Co-immunoprecipitation from MDA-MB-468 cells expressing Bcl-XL-IRES-BimEL, Bcl-2-IRES-BimEL, and Mcl-1-IRES-BimEL. […] The resulting immune complexes were analyzed by Western blotting with Bim, Bcl-XL, Bcl-2, and Mcl-1 antibodies. […] The resulting immune complexes were analyzed by Western blotting with the indicated antibodies. […] The resulting immune complexes were analyzed by Western blotting with the antibodies indicated on the right.
# HEK293T cells were co-transfected with 5 μg of pcDNA3, pCMV2, pcDNA3-HA-Bcl-XL or pCMV2-Flag-BimEL expression vectors using TransFectin™ reagent (Bio-Rad Laboratories, Hercules, Calif.) and, after 18 h, exposed to DMSO, BH3-M6, or TPC (terphenyl control) for 2 h at 37° C. […] Beads were washed four times with lysis buffer, boiled for 5 min in Laemmli sample buffer and analyzed by Western blotting. […]
# [1] = system: Bim with Bcl-XL, Bcl-2 and Mcl-1; assay: Co-immunoprecipitation from MDA-MB-468 cells co-expressing Bcl-XL, Bcl-2 or Mcl-1 and Bim; conditions: MDA-MB-468, 0-100 μM BH3-M6 or 100 μM TPC, 24 h; tested form: diammonium salt (as drawn, CO2NH4)
# Protocol: FIG. 4 is a series of images illustrating BH3-M6 inhibits the interaction between Bcl-XL, Bcl-2, and Mcl-1 with Bim, Bak or Bax in intact cells. (A) Co-immunoprecipitation from HEK293T cells. HEK293T cells were co-transfected with HA-Bcl-XL and Flag-BimEL for 18 h. Cells were exposed to 0, 25, 50, and 100 μM of BH3-M6 or 100 μM of TPC for 2 h at 37° C., lysed and subjected to immunoprecipitation with anti-FLAG-M2 beads. The resulting immune complexes, as well as total lysates, were analyzed by Western blotting with the indicated antibodies. (B) Co-immunoprecipitation from MDA-MB-468 cells expressing Bcl-XL-IRES-BimEL, Bcl-2-IRES-BimEL, and Mcl-1-IRES-BimEL. Cells were grown in 100-mm plates and treated with 0, 25, 50, and 100 μM BH3-M6 or 100 μM TPC for 24 h at 37° C., lysed and subjected to immunoprecipitation with Bcl-XL, Bcl-2, and Mcl-1 antibodies. The resulting immune complexes were analyzed by Western blotting with Bim, Bcl-XL, Bcl-2, and Mcl-1 antibodies. (C) Co-immunoprecipitation from H1299 cells. H1299 non-small lung cancer cells were grown in RPMI-1640 medium plus 10% FBS, antibiotics and 1% sodium pyruvate, 1% HEPES, and 1.1% glucose. […] The resulting immune complexes were analyzed by Western blotting with the indicated antibodies. […] The resulting immune complexes were analyzed by Western blotting with the antibodies indicated on the right. […]
smiles,measurement,setting,value
CC(C)Cc1cc(-c2ccc(-c3ccc(CCC(=O)O)cc3CC(C)C)cc2Cc2ccccc2)ccc1OCC(=O)O,levels of Bax in its pro-apoptotic conformation,Bax,increased
same,inhibition of association of Flag-Bim with HA-Bcl-XL,Flag-Bim with HA-Bcl-XL,inhibited the association of Flag-Bim with HA-Bcl-XL in a dose-dependent manner
same,"disruption of interaction of Bim with Bcl-XL, Bcl-2 and Mcl-1",[1],"disrupted the interaction of Bim with Bcl-XL, Bcl-2 and Mcl-1 in a dose-dependent manner"
